{
  "source": "paper PMC12299506",
  "about": "“Flipping the Target: Evaluating Natural LDHA Inhibitors for Selective LDHB Modulation” (Molecules, 2025)",
  "origin": "cited, not measured here",
  "biological_target": "LDHB",
  "design": "method as in PMID 2073051, PMID 9497046, PMID 11377399",
  "conditions": "cited from earlier work",
  "data": [
    {"molecule": "Cc1cc2c(C(C)C)c(O)c(O)c(C=O)c2c(O)c1-c1c(C)cc2c(C(C)C)c(O)c(O)c(C=O)c2c1O", "note": "[gossypol, Gossypol]", "values": [
      {"measurement": "Ki", "value": 1.4, "unit": "µM"}
    ]}
  ]
}
